# Reference: PubChem BioAssay (NCI)
# Some results for these compounds are left out of this collection, so the calls shown say nothing about other tests.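 The compound was tested at five concentrations on cells cultured in 96-well plates, with a 48-hour exposure period. GI50 marks 50% less growth. TGI is the concentration that stops growth completely.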
# Experiments:
# Test in all cases: growth of human tumour cells (NCI), 48 h
# [1] = system: SF-268 CNS
# [2] = system: MCF7 breast
# [3] = system: UACC-257 melanoma
# [4] = system: NCI/ADR-RES ovarian
# [5] = system: SK-MEL-2 melanoma
# [6] = system: DU-145 prostate
# [7] = system: ACHN renal
# [8] = system: SF-539 CNS
# [9] = system: HCC-2998 colon
# [10] = system: UO-31 renal
# [11] = system: NCI-H522 lung
# [12] = system: PC-3 prostate
# [13] = system: IGROV1 ovarian
# [14] = system: HL-60(TB) leukemia
# [15] = system: OVCAR-5 ovarian
# [16] = system: CAKI-1 renal
# [17] = system: A549 NSCLC
# [18] = system: MDA-MB-435
# [19] = system: MDA-N
# [20] = system: SNB-19 CNS
# [21] = system: OVCAR-8 ovarian
# [22] = system: MDA-MB-231 breast
# [23] = system: OVCAR-3 ovarian
# [24] = system: SF-295 CNS
# [25] = system: RXF 393 renal
# [26] = system: NCI-H460 lung
# [27] = system: HT29 colon
# [28] = system: SK-MEL-28 melanoma
# [29] = system: MALME-3M melanoma
# [30] = system: HCT-15 colon
# [31] = system: M14 melanoma
# [32] = system: RPMI-8226 leukemia
# [33] = system: MOLT-4 leukemia
# [34] = system: EKVX NSCLC
# [35] = system: TK-10 renal
# [36] = system: HCT-116 colon
# [37] = system: NCI-H23 lung
# [38] = system: SR leukemia
# [39] = system: SK-MEL-5 melanoma
# [40] = system: CCRF-CEM leukemia
# [41] = system: SNB-75 CNS
# [42] = system: SK-OV-3 ovarian
# [43] = system: NCI-H226 lung
# [44] = system: HOP-92 NSCLC
# [45] = system: OVCAR-4 ovarian
# [46] = system: A498 renal
# [47] = system: UACC-62 melanoma
# [48] = system: SW-620 colon
# [49] = system: LOX IMVI melanoma
# [50] = system: KM12 colon
# [51] = system: T-47D breast
# [52] = system: HOP-62 NSCLC
# [53] = system: U251 CNS
# [54] = system: HS 578T breast
# [55] = system: NCI-H322M lung
# [56] = system: 786-0 renal
# [57] = system: COLO 205 colon
# [58] = system: SN12C renal
# [59] = system: K-562 leukemia
compound,measurement,setting,value
O=C(OC1CN2CCC1CC2)C(O)(/C=C/c1ccccc1)c1ccccc1 (stereo not drawn),GI50,[1],> 100 µM
same,TGI,[1],> 100 µM
same,GI50,[2],> 100 µM
same,TGI,[2],> 100 µM
same,GI50,[3],> 100 µM
same,TGI,[3],> 100 µM
same,GI50,[4],> 100 µM
same,TGI,[4],> 100 µM
same,GI50,[5],> 100 µM
same,TGI,[5],> 100 µM
same,GI50,[6],> 100 µM
same,TGI,[6],> 100 µM
same,GI50,[7],> 100 µM
same,TGI,[7],> 100 µM
same,GI50,[8],> 100 µM
same,TGI,[8],> 100 µM
same,GI50,[9],> 100 µM
same,TGI,[9],> 100 µM
same,GI50,[10],> 100 µM
same,TGI,[10],> 100 µM
same,GI50,[11],> 100 µM
same,TGI,[11],> 100 µM
same,GI50,[12],> 100 µM
same,TGI,[12],> 100 µM
same,GI50,[13],> 100 µM
same,TGI,[13],> 100 µM
same,GI50,[14],> 100 µM
same,TGI,[14],> 100 µM
same,GI50,[15],> 100 µM
same,TGI,[15],> 100 µM
same,GI50,[16],> 100 µM
same,TGI,[16],> 100 µM
same,GI50,[17],> 100 µM
same,TGI,[17],> 100 µM
same,GI50,[18],> 100 µM
same,TGI,[18],> 100 µM
same,GI50,[19],> 100 µM
same,TGI,[19],> 100 µM
same,GI50,[20],> 100 µM
same,TGI,[20],> 100 µM
same,GI50,[21],> 100 µM
same,TGI,[21],> 100 µM
same,GI50,[22],> 100 µM
same,TGI,[22],> 100 µM
same,GI50,[23],> 100 µM
same,TGI,[23],> 100 µM
same,GI50,[24],> 100 µM
same,TGI,[24],> 100 µM
same,GI50,[25],> 100 µM
same,TGI,[25],> 100 µM
same,GI50,[26],> 100 µM
same,TGI,[26],> 100 µM
same,GI50,[27],47.4 µM
same,TGI,[27],> 100 µM
same,GI50,[28],> 100 µM
same,TGI,[28],> 100 µM
same,GI50,[29],18 µM
same,TGI,[29],> 100 µM
same,GI50,[30],> 100 µM
same,TGI,[30],> 100 µM
same,GI50,[31],> 100 µM
same,TGI,[31],> 100 µM
same,GI50,[32],> 100 µM
same,TGI,[32],> 100 µM
same,GI50,[33],> 100 µM
same,TGI,[33],> 100 µM
same,GI50,[34],> 100 µM
same,TGI,[34],> 100 µM
same,GI50,[35],> 100 µM
same,TGI,[35],> 100 µM
same,GI50,[36],> 100 µM
same,TGI,[36],> 100 µM
same,GI50,[37],> 100 µM
same,TGI,[37],> 100 µM
same,GI50,[38],> 100 µM
same,TGI,[38],> 100 µM
same,GI50,[39],> 100 µM
same,TGI,[39],> 100 µM
same,GI50,[40],> 100 µM
same,TGI,[40],> 100 µM
same,GI50,[41],45.3 µM
same,TGI,[41],> 100 µM
same,GI50,[42],> 100 µM
same,TGI,[42],> 100 µM
same,GI50,[43],> 100 µM
same,TGI,[43],> 100 µM
same,GI50,[44],30.6 µM
same,TGI,[44],95.2 µM
same,GI50,[45],> 100 µM
same,TGI,[45],> 100 µM
same,GI50,[46],83.5 µM
same,TGI,[46],> 100 µM
same,GI50,[47],> 100 µM
same,TGI,[47],> 100 µM
same,GI50,[48],> 100 µM
same,TGI,[48],> 100 µM
same,GI50,[49],> 100 µM
same,TGI,[49],> 100 µM
same,GI50,[50],> 100 µM
same,TGI,[50],> 100 µM
same,GI50,[51],> 100 µM
same,TGI,[51],> 100 µM
same,GI50,[52],> 100 µM
same,TGI,[52],> 100 µM
same,GI50,[53],> 100 µM
same,TGI,[53],> 100 µM
same,GI50,[54],> 100 µM
same,TGI,[54],> 100 µM
same,GI50,[55],> 100 µM
same,TGI,[55],> 100 µM
same,GI50,[56],> 100 µM
same,TGI,[56],> 100 µM
same,GI50,[57],> 100 µM
same,TGI,[57],> 100 µM
same,GI50,[58],> 100 µM
same,TGI,[58],> 100 µM
same,GI50,[59],> 100 µM
same,TGI,[59],> 100 µM
